From patent US20230390283A1, “USES OF CHK2 INHIBITORS” (The University of Birmingham, priority 2020, published 2023)

What was measured:
[1] = tested on: clip compression (CC) model of SCI; experiment: Clip compression model of severe SCI: BBB scores; format: in vivo, rat; conditions: all doses (2, 0.2, 0.02 μg), vs Vehicle or Chk1i
[2] = tested on: clip compression (CC) model of SCI; experiment: Clip compression model of severe SCI: horizontal ladder crossing test; format: in vivo, rat; conditions: all doses (2, 0.2, 0.02 μg), vs Vehicle or Chk1i
Description: Horizontal ladder test: This tests the animals locomotor function and is performed on a 0.9-meter-long horizontal ladder with a diameter of 15.5 cm and randomly adjusted rungs with variable gaps of 3.5-5.0 cm. The total number of steps taken to cross the ladder and the left and right rear paw slips being were recorded and the mean error rate was then calculated by dividing the number of slips by the total number of steps taken.

COc1cccc(OCCCN)c1-c1cc(Nc2cnc(C#N)cn2)n[nH]1 [Prexasertib]
BBB scores [1]: improve significantly; also recorded: significant improvements | horizontal ladder crossing, footslips [2]: significantly fewer footslips; also recorded: fewer hindlimbs footslips

Entries after “also recorded” stand apart in the source; their conditions may differ.
